# System: Streptococcus agalactiae T53A4
# Test: Antimicrobial assay (MIC, agar dilution)
# Assay type: cell-based
# Settings: gentamicin
# Method: The antimicrobial activity of crude extract and partitions was evaluated against 36 pathogenic microorganisms (22 Gram-positive bacteria, 13 Gram-negative bacteria, and 1 yeast) according to Mahamodo et al.. The 36 microorganisms were grown overnight at 37°C on sloping Mueller-Hinton (MH) agar medium. Briefly, the bacteria were diluted with Ringer's Cysteine (RC) solution to obtain 10^6 bacteria/ml. In Petri dishes, 19 ml MH 2 agar was supplemented with 1 ml of stock solution of crude extract or partitions (12.5 mg/ml to 0.39 mg/ml) or antibiotics (gentamicin, vancomycin, and amoxicillin) (28 mg/ml to 6·10^−3 mg/ml), giving final concentrations from 625 to 19.5 µg/ml for the extracts and 64 to 0.03 µg/ml for antibiotics. Inocula of 10^4 colony forming units (CFU) were spotted ultimately with a multipoint inoculator (Steers Replicator).
smiles,measurement,value
"CNC(C)C1CCC(N)C(OC2C(N)CC(N)C(OC3OCC(C)(O)C(NC)C3O)C2O)O1 (stereo not shown) [Gent, gentamicin]",Reference antibiotics MIC values,R (R: >8)

# From article PMC5529658, “Antiproliferative and Antibacterial Activities of Cirsium scabrum from Tunisia” (Evidence-based Complementary and Alternative Medicine : eCAM, 2017)
